{
  "sequences": {"note": "By UniProt entry, the sequences of proteins in these tests, tags left out. Where a name states a change or a piece, a line headed by the entry shows the natural chain unless it says otherwise.", "UniProt Q16881, whole entry, looked up": "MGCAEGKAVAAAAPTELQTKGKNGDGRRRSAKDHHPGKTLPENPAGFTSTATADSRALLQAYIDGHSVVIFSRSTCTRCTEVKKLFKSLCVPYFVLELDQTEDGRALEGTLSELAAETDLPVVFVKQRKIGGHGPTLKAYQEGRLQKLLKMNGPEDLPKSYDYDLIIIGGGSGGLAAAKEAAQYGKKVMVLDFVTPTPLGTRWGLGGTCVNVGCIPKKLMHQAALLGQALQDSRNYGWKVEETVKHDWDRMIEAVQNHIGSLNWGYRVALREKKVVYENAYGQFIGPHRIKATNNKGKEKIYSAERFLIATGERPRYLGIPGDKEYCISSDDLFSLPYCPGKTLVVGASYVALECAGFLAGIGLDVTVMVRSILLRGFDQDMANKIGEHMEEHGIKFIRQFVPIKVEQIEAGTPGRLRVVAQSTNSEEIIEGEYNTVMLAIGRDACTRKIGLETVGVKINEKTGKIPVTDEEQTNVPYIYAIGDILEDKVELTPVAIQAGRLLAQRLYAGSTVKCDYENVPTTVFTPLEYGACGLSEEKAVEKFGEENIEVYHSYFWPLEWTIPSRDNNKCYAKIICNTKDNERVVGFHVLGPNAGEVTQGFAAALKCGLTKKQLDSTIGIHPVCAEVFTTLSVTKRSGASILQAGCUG", "UniProt P00390": "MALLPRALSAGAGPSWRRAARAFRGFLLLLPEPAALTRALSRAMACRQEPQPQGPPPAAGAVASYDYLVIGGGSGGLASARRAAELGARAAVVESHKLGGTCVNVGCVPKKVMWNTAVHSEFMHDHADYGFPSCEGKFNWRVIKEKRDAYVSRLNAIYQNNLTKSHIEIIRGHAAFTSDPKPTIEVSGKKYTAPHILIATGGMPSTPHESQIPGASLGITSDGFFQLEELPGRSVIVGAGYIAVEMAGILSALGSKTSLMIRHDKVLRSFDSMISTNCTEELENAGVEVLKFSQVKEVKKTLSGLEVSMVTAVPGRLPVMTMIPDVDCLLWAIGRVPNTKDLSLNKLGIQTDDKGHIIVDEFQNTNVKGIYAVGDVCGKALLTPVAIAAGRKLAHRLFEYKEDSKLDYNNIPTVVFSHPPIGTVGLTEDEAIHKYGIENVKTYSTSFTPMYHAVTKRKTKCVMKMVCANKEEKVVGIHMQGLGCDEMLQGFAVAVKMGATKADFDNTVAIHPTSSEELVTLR"},
  "source": "patent US6372772B1",
  "about": "“Inhibitors of redox signaling and methods of using same” (Prolx Pharmaceuticals Corporation, priority 1997, dated 2002)",
  "key": {"[1]": {"target": "thioredoxin reductase/thioredoxin (Homo sapiens, UniProt Q16881)", "assay": "thioredoxin reductase/thioredoxin-dependent insulin reduction assay", "assay_type": "biochemical"}, "[2]": {"test_system": "leukemia cell line", "settings": "mean 50% growth inhibition concentration; cited from earlier work"}, "[3]": {"target": "thioredoxin reductase (Homo sapiens, UniProt Q16881)", "assay": "thioredoxin reductase assay (DTNB reduction)", "settings": "ratio of IC50 glutathione reductase to IC50 thioredoxin reductase"}, "[4]": {"test_system": "NCI's panel of 60 human cancer cell lines", "settings": "mean 50% growth inhibition concentration, entire cell line panel; cited from earlier work"}, "[5]": {"target": "glutathione reductase (Homo sapiens, UniProt P00390)", "assay": "glutathione reductase assay (DTNB reduction)", "assay_type": "biochemical", "settings": "Table II"}},
  "data": [
    {"smiles": "Cn1c(=O)c([N+](=O)[O-])c(N=[N+]=[N-])c2ccccc21", "values": [
      {"measurement": "IC50 (μg/ml) in TR/Trx Assay", "setting": "[1]; Table I, 30 min preincubation", "value": 0.49, "unit": "µg/mL"},
      {"measurement": "IC50TRTrx", "setting": "[1]; Table II", "value": 0.49, "unit": "µg/mL"},
      {"measurement": "in vitro IC50 TR/Trx (μg/ml)", "setting": "[1]; Table III", "value": "≦0.5 μg/ml"},
      {"measurement": "TR/TRTrx", "setting": "[1]; ratio of IC50 TR alone and IC50 TR/Trx assay", "value": 0.2},
      {"measurement": "GI50 (μg/ml) Leukemias", "setting": "[2]", "value": 0.2, "unit": "µg/mL"},
      {"measurement": "GR/TR", "setting": "[3]", "value": 330},
      {"measurement": "GI50 (μg/ml) All Tumors", "setting": "[4]", "value": 0.7, "unit": "µg/mL"},
      {"measurement": "IC50GR", "setting": "[5]", "value": 33, "unit": "µg/mL"}
    ]}
  ]
}
